The assay concerns pterygium. In words: NIH3T3 cell-induced rabbit pterygium model, pterygium area by slit lamp on Day 13. As to conditions: Day 13, eye drops three times a day. The method, then: In this experiment, a pterygium model was induced in New Zealand white rabbits by NIH3T3 cells, and the compounds in the present disclosure were administered topically by eye drops, 3 times per day, and on day 13, the size of the pterygium was assessed by photographing the anterior segment of the animal's eye with a slit lamp. The inhibitory effect of the compounds of the present disclosure was explored on rabbit pterygium.
18 male New Zealand white rabbits were randomly divided into three groups according to their body weight: 6 rabbits in each group were injected with NIH3T3 cells and matrix membrane through bulbar conjunctiva.
The animals in each group, as well as the replacement animals, were modeled.
NIH3T3 cell revival: Immediately after receiving the cells, the cells were stored in a liquid nitrogen tank until revival; DMEM+10% neonatal fetal bovine serum would expire after three months from preparation.
NIH3T3 cell culture: The revived cells were cultured in 5% CO2, 37 °C cell culture incubator, and the culture medium was changed twice a week, and cell passaging was performed when the cell density reached 70% to 75%. […]
Examination items: On Day 13 after modeling, the anterior segment of the animal's eye was photographed with a slit lamp, and the size of pterygium was evaluated and the area was measured.

With `Cc1ccc(F)c(NC(=O)Nc2ccc(-c3ccc(OCCCN4CCCC4)c4[nH]nc(N)c34)c3ccccc23)c1`, the “change in pterygium area compared to the vehicle control group” value is recorded as “decrease in pterygium area compared to the vehicle control group”. For `Cc1cccc(NC(=O)Nc2ccc(-c3cncc4[nH]nc(N)c34)c3ccccc23)c1`, the “change in pterygium area compared to the vehicle control group” value is on record as “decrease in pterygium area compared to the vehicle control group”.

For the origin of these results see US20260382580A1, “USE OF NAPHTHYLUREA COMPOUNDS IN PREPARATION OF DRUGS FOR TREATING PTERYGIUM” (published 2026).
